From patent US20260382608A1, “A CLASS OF PYRIMIDINE COMPOUNDS, AND PREPARATION METHOD THEREFOR AND USE THEREOF” (published 2026)

system: PC-9-EGFR-Del19-T790M-C797S cells; assay: Proliferation inhibition on PC-9-EGFR-Del19-T790M-C797S cells by sulforhodamine B method (SRB method); conditions: read-out: PC-9-EGFR-Del19-T790M-C797S IC50, 72 hours, 37 °C, 5% CO2, 0.5% DMSO, 5000 cells/well, EGFR Del19/T790M/C797S exogenously stably overexpressed
Method: The in vitro proliferation inhibition activity of the compound on PC-9-EGFR-Del19-T790M-C797S cells where Del19/T790M/C797S triple mutation exists in exogenously stably overexpressed EGFR protein of human non-small cell lung cancer PC-9 was determined by sulforhodamine B method (SRB method).
Cell source: PC-9-EGFR-Del19-T790M-C797S cells were purchased from Nanjing Cobioer Biosciences Co., Ltd.
PC-9-EGFR-Del19-T790M-C797S cells were cultured in an RPMI1640 complete medium containing puromycin (2 g/ml) and 10% fetal bovine serum. PC-9-EGFR-Del19-T790M-C797S cells in a logarithmic growth phase were taken, seeded in a 96-well plate at a cell density of 5000 cells/135 μL complete culture medium/well, placed in a thermostatic incubator containing 5% CO2 at 37 °C and cultured for 24 hours to ensure complete anchorage of cells. Each compound was dissolved in dimethyl sulfoxide (DMSO) in advance to prepare a 10 mM stock solution, and then the compound was successively diluted with DMSO and the complete culture medium. The 96-well plates in which the cells were seeded were taken out, and one of the plates was used as a growth-free control group (a medium control group without cell growth at 0 hour); 15 μL of compounds with different concentrations were added to each well of other 96-well plates to achieve the final concentrations of 2500, 625, 156.25, 39.06, 9.77, 2.44, 0.61, 0.15, 0.04, and 0.01 nM, and three duplicate wells were set for each compound concentration, a negative control group (a medium control group which contained cells but had no compound added) was provided, and the concentration of DMSO in each well was 0.5%.
The culture of the reserved growth-free control group was terminated immediately, and other 96-well plates were continued to be cultured for 72 hours in the thermostatic incubator containing 5% CO2 at 37 °C before culture termination. The method for culture termination was as follows: each well was added with 50 μL of pre-cooled (4 °C) 50% trichloroacetic acid aqueous solution, placed and fixed for 1 hour at 4 °C, washed with purified water for at least 5 times, and dried naturally in the air or dried in an oven at 60 °C.
A 4 mg/mL SRB solution was prepared by purified water containing 1% glacial acetic acid; 100 μL was added in each well, stained for 1 hour at room temperature, with the supernatant discarded, washed for at least 5 times with 1% glacial acetic acid to remove non-specific binding, and dried for future use. […]
GraphPad Prism 8.3 software was used for data analysis, and non-linear S-curve regression was used for fitting the data to obtain a dose-effect curve, from which an IC50 value was calculated, and the results are shown in Table 1.

In order of falling IC50:
1. CC(=O)Nc1cc(Nc2nccc(-c3cn(C)c4ccccc34)n2)c(OCC(F)(F)F)nc1N(C)CCN(C)C  2930 nM
2. C=CC(=O)Nc1cc(Nc2nc(-c3cn(C)c4ccccc34)cc[n+]2CCC(=O)Nc2cc(Nc3nccc(-c4cn(C)c5ccccc45)n3)c(OCC(F)(F)F)nc2N(C)CCN(C)C)c(OCC(F)(F)F)nc1N(C)CCN(C)C  214 nM
3. C=CC(=O)Nc1cc(Nc2nccc(-c3cn(C)c4ccccc34)n2)c(OCC(F)(F)F)nc1N(C)CCNC  173 nM
4. C=CC(=O)Nc1cc(Nc2nccc(-c3cn(C)c4ccccc34)n2)c(OCC(F)(F)F)nc1N(C)CC[N+](C)(C)CCC(=O)Nc1cc(Nc2nccc(-c3cn(C)c4ccccc34)n2)c(OCC(F)(F)F)nc1N(C)CCN(C)C  147 nM
